Values of other authors, collected in US6413717B1, “Methods for indentifying anti-cancer agents” (Corixa Corporation, priority 1998, dated 2002).

Assays:
mda-7 = settings: IFN-β 2000 U and MEZ 10 ng/mL, agents known to modulate gene expression
human melanoma cells = settings: IFN-β 2000 U and MEZ 10 ng/mL

B1: IFN-β: human fibroblast interferon, used as positive control (protein, UniProt P01574 22-187, looked up)
Interferon beta: MSYNLLGFLQRSSNFQCQKLLWQLNGRLEYCLKDRMNFDIPEEIKQLQQFQKEDAALTIYEMLQNIFAIFRQDSSSTGWNETIVENLLANVYHQINHLKTVLEEKLEKEDFTRGKLMSSLHLKRYYGRILHYLKAKEYSHCAWTIVRVEILRNFYFINRLTGYLRN
mda-7 expression (mda-7): induce an increase
proliferative potential (human melanoma cells): irreversible loss of proliferative potential
terminal differentiation (human melanoma cells): induction of terminal differentiation
